In experiment [1] the target is T1, Beta-secretase 1 (Homo sapiens, UniProt P56817). The experiment is described as follows: (§1) Diluted TR-FRET Assay: TR-FRET AssayThe beta-secretase enzyme used in the TR-FRET is prepared as follows: The cDNA for the soluble part of the human beta-Secretase (AA 1-AA 460) was cloned using the ASP2-Fc10-1-IRES-GFP-neoK mammalian expression vector. The gene was fused to the Fc domain of IgG1 (affinity tag) and stably cloned into HEK 293 cells. […] The robotic systems Biomek FX and Velocity 11 were used for all liquid handling and the enzyme and substrate solutions were kept on ice until they were placed in the robotic system. Enzyme (9 ul) was added to the plate then 1 ul of compound in dimethylsulphoxide was added, mixed and pre-incubated for 10 minutes. It is filed as cell-based, HEK293. Background: In TR-FRET formats the signal depends on donor and acceptor labels being close together.

Sequences of proteins named here, by UniProt entry; tags and fusion partners are left off. A change or cut given only in a name is not applied to a line headed by its entry.
UniProt P56817: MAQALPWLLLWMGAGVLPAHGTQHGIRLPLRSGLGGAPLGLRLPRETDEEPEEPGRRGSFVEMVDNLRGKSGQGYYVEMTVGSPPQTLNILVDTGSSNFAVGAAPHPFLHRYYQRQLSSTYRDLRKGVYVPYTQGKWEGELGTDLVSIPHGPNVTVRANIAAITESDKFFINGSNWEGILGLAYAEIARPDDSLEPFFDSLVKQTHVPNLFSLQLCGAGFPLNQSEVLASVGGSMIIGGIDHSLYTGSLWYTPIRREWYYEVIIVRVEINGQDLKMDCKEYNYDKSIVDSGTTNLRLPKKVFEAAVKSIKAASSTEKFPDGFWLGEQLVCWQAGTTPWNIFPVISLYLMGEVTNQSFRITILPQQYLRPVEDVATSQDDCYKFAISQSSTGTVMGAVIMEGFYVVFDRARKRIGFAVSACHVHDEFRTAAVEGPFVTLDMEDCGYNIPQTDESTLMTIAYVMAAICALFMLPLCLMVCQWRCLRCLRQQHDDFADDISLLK

Experiment [2] concerns the target T1, Beta-secretase 1. The description is as §1, with “TR-FRET” for “Diluted TR-FRET”, “The” for “TR-FRET AssayThe”, “minutes. Substrate (10 ul) was then added, mixed.” for “minutes.”. It is filed as cell-based, HEK293.

For orientation: IC50 means the midpoint of a concentration-inhibition curve. The low end stands for greater potency in that assay, the high end for weaker potency in that assay. In experiment [1], `CC1=N[C@]2(C[C@@H]([C@H]3CCCOC3)Oc3ccc(-c4cccc(Cl)c4)cc32)N=C1N` (single isomer, unassigned; isomer 8) registered a 50% inhibitory concentration (IC50) of 14 nM.

Regarding `CC1=N[C@]2(C[C@H]([C@@H]3CCCOC3)Oc3ccc(-c4cccc(Cl)c4)cc32)N=C1N` (single isomer, unassigned; isomer 7), in experiment [1], the half-inhibitory concentration (IC50) turned out to be 10 nM.

With `CO[C@H]1CC[C@]2(CC1)Cc1ccc(-c3cc(Cl)cc(C#N)c3)cc1[C@@]21N=C(C)C(N)=N1`, the half-inhibitory concentration (IC50) in experiment [2] (hek293) came out at 20 nM.

In turn, `CO[C@H]1CC[C@]2(CC1)Cc1ccc(-c3cncc(Cl)c3)cc1[C@@]21N=C(C)C(N)=N1` returned an IC50 in experiment [2] (hek293) of 23 nM.

Take `CC1=N[C@]2(C[C@H]([C@H]3CCCOC3)Oc3ccc(-c4cccc(Cl)c4)cc32)N=C1N` (single isomer, unassigned; isomer 4): the half-inhibitory concentration (IC50) in experiment [2] was found to be 803 nM.

For the origin of these results see ChEMBL document CHEMBL3638764, “Compounds and their use as BACE inhibitors” (2014).
